Earlier results, collected in patent publication US8530423B2, “Anxiolytic compositions containing αs1-casein-derived peptides” (Universite de Lorraine, priority 2008, dated 2013).

Target: angiotensin-I converting enzyme (Homo sapiens, UniProt P12821)
Conditions: literature (MARUYAMA et al.); cited from earlier work

Substance: 23-24: αs1-casein peptide 23-24 (FF; UniProt P02662 38-39, looked up, fragment)
- angiotensin-I converting enzyme inhibition: angiotensin-I converting enzyme inhibitors
